Patent publication US20050019869A1, “Chimeric neuropeptide Y receptors” (priority 2000, published 2005)

Protein sequences, listed by entry. Tags and fused reporters are not part of them. Lines headed by an entry give the natural chain unless they say otherwise; changes in a name come on top.
UniProt Q15761: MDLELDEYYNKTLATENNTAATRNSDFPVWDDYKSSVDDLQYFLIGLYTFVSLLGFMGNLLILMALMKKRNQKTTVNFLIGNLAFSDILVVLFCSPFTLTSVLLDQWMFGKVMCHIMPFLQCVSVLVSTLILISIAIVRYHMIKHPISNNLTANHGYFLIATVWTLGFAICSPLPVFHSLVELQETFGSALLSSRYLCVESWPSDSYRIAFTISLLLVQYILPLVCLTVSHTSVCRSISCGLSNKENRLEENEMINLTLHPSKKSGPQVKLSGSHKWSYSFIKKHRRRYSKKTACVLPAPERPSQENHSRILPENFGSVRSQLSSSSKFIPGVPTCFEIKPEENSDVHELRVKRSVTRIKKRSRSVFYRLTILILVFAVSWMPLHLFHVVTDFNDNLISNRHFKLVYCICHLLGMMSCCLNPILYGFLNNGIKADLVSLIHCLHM

Experiments:
Human NPY5ΔY1IC3 chimera = biological target: T1, Human NPY5ΔY1IC3 chimera (human, UniProt Q15761 1-445); experiment: displacement of 0.050 nM [125I]PYY (porcine) from Sf9 membranes, filtration
T1 construct: Expressed in Sf9 cells; assayed in purified membranes; also called hNPY5ΔY1IC3; NPY5 Y1IC3
T1 chain: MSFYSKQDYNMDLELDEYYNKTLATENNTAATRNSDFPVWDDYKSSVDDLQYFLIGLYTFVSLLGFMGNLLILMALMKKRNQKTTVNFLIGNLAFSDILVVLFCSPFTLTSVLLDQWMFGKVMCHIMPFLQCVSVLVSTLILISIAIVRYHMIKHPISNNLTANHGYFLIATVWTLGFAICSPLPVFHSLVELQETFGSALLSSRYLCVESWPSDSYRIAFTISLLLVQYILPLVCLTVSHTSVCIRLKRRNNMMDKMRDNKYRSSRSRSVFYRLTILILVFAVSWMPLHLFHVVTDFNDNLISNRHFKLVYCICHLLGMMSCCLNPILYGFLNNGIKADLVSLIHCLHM

Human NPY5ΔY1CT chimera = biological target: T2, Human NPY5ΔY1CT chimera (human); experiment: as above
T2 construct: Human NPY5 with its C-terminal intracellular domain replaced by that of human Y1; Expressed in Sf9 cells; assayed in purified membranes
T2 chain: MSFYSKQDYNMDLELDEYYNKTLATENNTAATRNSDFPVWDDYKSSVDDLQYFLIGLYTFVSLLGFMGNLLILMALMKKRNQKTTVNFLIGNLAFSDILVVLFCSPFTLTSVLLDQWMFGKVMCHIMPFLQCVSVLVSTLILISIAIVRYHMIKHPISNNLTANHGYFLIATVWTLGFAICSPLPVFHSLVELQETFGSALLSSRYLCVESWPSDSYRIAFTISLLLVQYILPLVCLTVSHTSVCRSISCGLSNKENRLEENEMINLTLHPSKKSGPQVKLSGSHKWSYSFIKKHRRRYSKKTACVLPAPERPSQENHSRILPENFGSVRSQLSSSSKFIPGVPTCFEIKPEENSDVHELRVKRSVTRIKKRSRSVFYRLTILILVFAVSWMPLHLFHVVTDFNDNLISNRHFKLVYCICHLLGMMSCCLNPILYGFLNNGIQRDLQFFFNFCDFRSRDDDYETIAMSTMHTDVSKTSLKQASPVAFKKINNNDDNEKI

Ki (Human NPY5ΔY1IC3 chimera): 10.3 nM
Ki (Human NPY5ΔY1CT chimera): 23.4 nM
Binder: PAEDMARYYSALRHYINLITRQRY (peptide, UniProt P01303 41-64, looked up, range 13-36; also called HNPY 13-36) [human NPY 13-36]
